{"source": "patent US20260109944A1", "about": "“Culture Method for Organoids” (Koninklijke Nederlandse Akademie Van Wetenschappen, priority 2014, published 2026)", "origin": "cited, not measured here", "target": "T1, ALK5 (TGF-βR1) (Homo sapiens, UniProt P36897)", "T1 sequence (P36897 34-503)": "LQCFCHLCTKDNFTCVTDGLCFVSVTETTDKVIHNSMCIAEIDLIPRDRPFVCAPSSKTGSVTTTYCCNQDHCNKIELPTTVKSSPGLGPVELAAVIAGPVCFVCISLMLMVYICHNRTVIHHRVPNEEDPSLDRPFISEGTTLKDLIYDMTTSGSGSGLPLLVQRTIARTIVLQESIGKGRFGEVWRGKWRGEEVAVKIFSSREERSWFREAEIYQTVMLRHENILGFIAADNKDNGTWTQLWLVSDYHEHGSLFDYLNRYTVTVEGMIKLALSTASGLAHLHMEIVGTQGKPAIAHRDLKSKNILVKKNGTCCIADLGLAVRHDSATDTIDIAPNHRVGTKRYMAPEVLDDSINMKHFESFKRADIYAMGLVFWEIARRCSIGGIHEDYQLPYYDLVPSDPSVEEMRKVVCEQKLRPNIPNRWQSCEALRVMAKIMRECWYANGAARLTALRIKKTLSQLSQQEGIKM", "details": "at high concentrations (approximate 10 μM or more); cited from earlier work"}
{"smiles": "C[S+]([O-])c1ccc(-c2nc(-c3ccc(F)cc3)c(-c3ccncc3)[nH]2)cc1", "note": "(stereo not shown) [SB-203580]", "values": [{"measurement": "inhibition of ALK5", "result": "thought to inhibit ALK5"}]}
